For test [1], the target named is T1, hERG K+ channel (Homo sapiens, UniProt Q12809). The test is described as follows: biochemical.
Test [2] concerns the target T1, hERG K+ channel. Particulars: literature radioligand displacement values; cited from earlier work. (In general: Loss of bound radioactivity is the signal in a displacement assay; it reports binding, not function.)

Sequences of proteins named here, by UniProt entry; tags and fusion partners are left off. A change or cut given only in a name is not applied to a line headed by its entry.
UniProt Q12809: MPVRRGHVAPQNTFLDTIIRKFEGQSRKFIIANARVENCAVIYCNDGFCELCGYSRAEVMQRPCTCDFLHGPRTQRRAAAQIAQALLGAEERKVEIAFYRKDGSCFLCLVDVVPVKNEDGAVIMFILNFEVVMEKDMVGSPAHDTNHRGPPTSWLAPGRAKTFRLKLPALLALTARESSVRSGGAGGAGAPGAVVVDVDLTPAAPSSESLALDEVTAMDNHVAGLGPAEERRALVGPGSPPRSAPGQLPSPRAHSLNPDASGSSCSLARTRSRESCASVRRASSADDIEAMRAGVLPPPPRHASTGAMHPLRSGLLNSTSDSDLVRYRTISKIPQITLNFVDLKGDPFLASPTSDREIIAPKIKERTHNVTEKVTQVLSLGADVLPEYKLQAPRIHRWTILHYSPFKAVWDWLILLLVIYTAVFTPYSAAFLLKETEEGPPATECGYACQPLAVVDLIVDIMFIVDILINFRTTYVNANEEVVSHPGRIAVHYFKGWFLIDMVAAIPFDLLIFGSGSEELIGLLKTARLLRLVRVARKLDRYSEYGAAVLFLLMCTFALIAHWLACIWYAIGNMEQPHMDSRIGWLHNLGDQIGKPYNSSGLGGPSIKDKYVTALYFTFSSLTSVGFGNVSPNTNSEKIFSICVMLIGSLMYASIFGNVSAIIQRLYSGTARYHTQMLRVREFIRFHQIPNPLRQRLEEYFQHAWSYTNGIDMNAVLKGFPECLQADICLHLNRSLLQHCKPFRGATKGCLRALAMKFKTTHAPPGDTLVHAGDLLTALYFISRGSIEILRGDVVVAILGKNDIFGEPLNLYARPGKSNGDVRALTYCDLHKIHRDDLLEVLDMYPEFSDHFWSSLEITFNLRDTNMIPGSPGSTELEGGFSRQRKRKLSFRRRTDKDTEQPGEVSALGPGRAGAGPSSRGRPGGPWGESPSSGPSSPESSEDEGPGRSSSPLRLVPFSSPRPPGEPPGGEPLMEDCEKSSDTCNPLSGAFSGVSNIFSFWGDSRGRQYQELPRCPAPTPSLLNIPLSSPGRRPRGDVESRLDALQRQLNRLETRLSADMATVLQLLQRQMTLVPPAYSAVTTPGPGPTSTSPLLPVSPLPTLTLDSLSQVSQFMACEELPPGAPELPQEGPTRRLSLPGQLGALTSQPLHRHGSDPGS

SMILES strings stand for the structures. pIC50: −log10 of the molar value. Like-named read-outs stand apart in the source and are kept apart here.

The pIC50 is −log10 of the IC50, conventionally taken in molar units. As to `CC(C)COCC(CN(Cc1ccccc1)c1ccccc1)N1CCCC1` (centres unmarked) [Bepridil], the pIC50 was 6.55 in test [1] and 6.35 to 6.77 in test [2].
